PubChem BioAssay AID493131 (Broad Institute, 2011)
Only a part is listed here, and it is no random draw. Some structures show a salt or complex split into parts, the way the source records it. The source made the active and inactive calls.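 How the source made its calls: active means mean activation above about 17%, with every replicate also reaching it (limit read from the data, passing the limit was not always enough); inconclusive means only one of the two conditions met; inactive means the rest.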

Amino acid sequences for entries named in this document (tags omitted).
UniProt P13346, whole entry: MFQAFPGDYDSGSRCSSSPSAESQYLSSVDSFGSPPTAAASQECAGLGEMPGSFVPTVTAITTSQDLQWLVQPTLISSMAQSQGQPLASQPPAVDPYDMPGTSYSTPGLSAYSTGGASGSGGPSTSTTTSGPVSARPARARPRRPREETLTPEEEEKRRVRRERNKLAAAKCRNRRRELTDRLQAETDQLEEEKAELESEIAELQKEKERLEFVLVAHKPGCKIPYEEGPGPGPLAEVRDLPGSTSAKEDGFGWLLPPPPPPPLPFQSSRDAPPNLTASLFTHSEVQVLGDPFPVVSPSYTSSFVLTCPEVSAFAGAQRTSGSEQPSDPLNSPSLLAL

target: Protein FosB (Mus musculus) (UniProt P13346); experiment: enhancers of mouse delta FosB DNA binding – biochemical, fluorescence polarization, TAMRA-CDK5 oligo, single point, primary screen (AID 493131); settings: purified delta FosB, at 25 µM, active compounds read high, percent of positive-control signal above neutral wells;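 further: fluorescence polarization rise as delta FosB binds a TAMRA Cdk5 AP-1 oligo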

Structure (SMILES)	activation
COc1ccc(OP(C)(=O)Nc2cccc(F)c2)cc1 (stereo not given)	inactive: -2.46%
COc1ccccc1OP(C)(=O)Nc1ccc(C)cc1 (stereo not given)	inactive: -3.58%
Cc1ccc(NP(C)(=O)Oc2ccccc2)c(C)c1 (stereo not given)	inactive: 1.13%
CCOC(=O)c1ccc(NP(C)(=O)Oc2ccccc2)cc1 (stereo not given)	inactive: -3.52%
O=[N+]([O-])c1ccc2c(c1)C=Nc1ccccc1O2	inactive: 0.816%
CC(C)(C)c1ccc(OP(C)(=O)Nc2ccc(SC(F)(F)F)cc2)cc1 (stereo not given)	inactive: -3.02%
Cc1cccc(C)c1OP(C)(N)=O (stereo not given)	inactive: 5.37%
O=[N+]([O-])c1cc([N+](=O)[O-])c(Nc2cccnc2)c([N+](=O)[O-])c1	inactive: -0.165%
CCN(CC)CCCOC(=O)C(O)(c1ccccc1)c1ccccc1	inactive: -1.99%
CP(=O)(Nc1ccccn1)Oc1ccc(Cl)cc1 (stereo not given)	inactive: 2.21%
CCOC(=O)c1ccc(NP(C)(=O)Oc2ccc(OC)cc2)cc1 (stereo not given)	inactive: -13.8%
CCOP(C)(=S)SCC(=O)NC(C)C(=O)O (stereo not given)	inactive: -4.39%
CP(=O)(NC(=O)Nc1ccccc1)Oc1ccccc1 (stereo not given)	inactive: 4.84%
CCc1ccc(OP(C)(=O)N2CCN(c3ccc([N+](=O)[O-])cc3)CC2)cc1 (stereo not given)	inactive: -11.9%
Cc1cc(C)cc(OP(C)(=O)Nc2ccc(SC(F)(F)F)cc2)c1 (stereo not given)	inactive: 1.54%
Cc1cccc(C)c1OP(C)(=O)Nc1ccc(SC(F)(F)F)cc1 (stereo not given)	inactive: -0.134%
CP(=O)(Oc1ccccc1)OC(c1ccccc1)C(F)(F)F (stereo not given)	inactive: -5.05%
CP(=O)(Nc1ccccc1Br)Oc1ccccc1 (stereo not given)	inactive: -0.981%
COc1ccccc1OP(C)(=O)Nc1ccccc1 (stereo not given)	inactive: -0.514%
CP(=S)(Nn1cnnc1)Oc1ccccc1 (stereo not given)	inactive: -2.5%
CCOC(=O)c1ccc(NP(C)(=O)Oc2ccc(Cl)cc2)cc1 (stereo not given)	inactive: -7.08%
CP(=O)(OC12CC3CC(CC(C3)C1)C2)OC12CC3CC(CC(C3)C1)C2	inactive: -7.01%
CN(C)C(=O)c1c([N+](=O)[O-])cc([N+](=O)[O-])cc1[N+](=O)[O-]	inactive: -1.07%
COc1ccccc1OP(C)(=O)Nc1ccccc1Br (stereo not given)	inactive: -17.1%

Structure (SMILES)	activation
CC(C)(C)c1ccc(OP(C)(=O)O)cc1	inactive: -17.6%
CP(=O)(Nc1ccc(Cl)cc1)Oc1ccc(F)cc1 (stereo not given)	inactive: 0.979%
COc1ccccc1OP(C)(=O)Nc1c(C)n(C)n(-c2ccccc2)c1=O (stereo not given)	inactive: -5.32%
O=C(OCCCN1CCCC1)C(O)(c1ccccc1)C1CCCCC1 (stereo not given)	inactive: -4.73%
CP(=O)(Oc1ccccc1)N1CCOC1=O (stereo not given)	inactive: -1.56%
CCc1ccc(OP(C)(=O)Nc2cccnc2)cc1 (stereo not given)	inactive: -7.58%
CCN(CC)CC(O)COC(=O)C(O)(c1ccccc1)C1CCCCC1 (stereo not given)	inactive: 0.692%
COc1ccc(OP(C)(=O)Nc2ccc(Br)cc2)cc1 (stereo not given)	inactive: -0.834%
CP(=O)(Nc1ccccn1)Oc1ccccc1 (stereo not given)	inactive: -3.08%
COc1ccccc1OP(C)(=O)Nc1ccc(C)cc1C (stereo not given)	inactive: 5.03%
CCc1ccc(OP(C)(=O)O)cc1	inactive: -0.12%
Cc1c(NP(C)(=O)Oc2ccc(C(C)C)cc2)c(=O)n(-c2ccccc2)n1C (stereo not given)	inactive: -8.46%
O=[N+]([O-])c1cc([N+](=O)[O-])c(Nc2ccccn2)c([N+](=O)[O-])c1	inactive: 4.4%
COc1ccc(OP(C)(=O)Nc2ccccn2)cc1 (stereo not given)	inactive: -0.23%
CN(C)CCOC(=O)C(O)(c1ccccc1)C1CCCC1 (stereo not given)	inactive: -4.35%
COc1ccccc1OP(C)(=O)Nc1ccc(Br)cc1 (stereo not given)	inactive: -3.83%
CP(=O)(Nc1ccc(Cl)cc1Cl)Oc1ccccc1 (stereo not given)	inactive: 2.08%
CCCCCCCCCCCCCCCC1C[N+](C)(C)CCOP(C)(=O)O1 (stereo not given)	inactive: -115%
CP(=O)(OCCOc1ccccc1)OCCOc1ccccc1	inactive: 4.2%
COc1ccccc1OP(C)(=O)Nc1ccc(C)c(C)c1 (stereo not given)	inactive: 0.942%
COc1ccc(OP(C)(=O)Nc2ccccc2Br)cc1 (stereo not given)	inactive: 2.02%
O=C1C(O)=C([N+](=O)[O-])C(=O)C(O)=C1[N+](=O)[O-]	inactive: 3.09%
Cc1cc(C)cc(OP(C)(=O)Nc2cccc(C(F)(F)F)c2)c1 (stereo not given)	inactive: -3.97%
CP(=O)(Nc1ccccc1)Oc1ccc(F)cc1 (stereo not given)	inactive: 6.5%

Structure (SMILES)	activation
O=[N+]([O-])c1cc([N+](=O)[O-])c(OC2CCCCC2O)c([N+](=O)[O-])c1 (stereo not given)	inactive: -9.85%
CCCCCOc1ccc(NP(C)(=O)Oc2ccc(Cl)cc2Cl)cc1 (stereo not given)	inactive: -13.4%
Cc1c([N+](=O)[O-])cc([N+](=O)[O-])c(Br)c1[N+](=O)[O-]	inactive: 3.11%
CCN(CC)CCCOC(=O)C(O)(c1ccccc1)C1CCCCC1 (stereo not given)	inactive: -13.8%
CCOC(=O)c1ccc(NP(C)(=O)Oc2ccc(F)cc2)cc1 (stereo not given)	inactive: -0.689%
COc1ccc(OP(C)(=O)Nc2ccc(SC(F)(F)F)cc2)cc1 (stereo not given)	inactive: -10.8%
COc1ccc2c(c1O)-c1c(O)c(OC)cc3c1[C@H](C2)[N+](C)(C)CC3.O=[N+]([O-])c1cc([N+](=O)[O-])c([O-])c([N+](=O)[O-])c1[O-]	inactive: -3.14%
O=C(OC1CN2CCC1CC2)c1ccc([N+](=O)[O-])cc1 (stereo not given)	inactive: -4.72%
O=C(OCCN1CCN(CCOCc2ccccc2)CC1)C(O)(c1ccccc1)c1ccccc1	inactive: -3.99%
CP(=O)(Nc1ccccc1F)Oc1ccccc1 (stereo not given)	inactive: 1.57%
CC(C)c1ccc(OP(C)(=O)Nc2ccc(SC(F)(F)F)cc2)cc1 (stereo not given)	inactive: -9.67%
Cc1ccccc1NP(C)(=O)Nc1ccccc1C	inactive: 2.69%
CP(=O)(Nc1ccc2c(c1)OCCO2)Oc1ccccc1 (stereo not given)	inactive: -5.4%
CCOP(C)(=S)SCC(=O)NC(C)(CC)C(=O)O (stereo not given)	inactive: -5.51%
CP(=O)(Nc1ccc(SC(F)(F)F)cc1)Oc1ccc(F)cc1 (stereo not given)	inactive: -4.45%
Cc1c(C(c2ccc3c(c2)OCO3)c2c(C)n(C)n(-c3ccccc3)c2=O)c(=O)n(-c2ccccc2)n1C.O=[N+]([O-])c1cc([N+](=O)[O-])c(O)c([N+](=O)[O-])c1	inactive: 3.34%
O=[N+]([O-])c1ccc(OP2(=O)COCCO2)cc1 (stereo not given)	inactive: -2.22%
Cc1cc(-c2cccc3ccccc23)c(C)cn1.O=[N+]([O-])c1cc([N+](=O)[O-])c(O)c([N+](=O)[O-])c1	inactive: -8.54%
O=[N+]([O-])c1cc([N+](=O)[O-])c(NCC2CCS(=O)(=O)C2)c([N+](=O)[O-])c1 (stereo not given)	inactive: 2.49%
CN(C)CCOC(=O)C(O)(c1ccccc1)C1CCCCC1 (stereo not given)	inactive: -0.288%
COc1ccc(NP(C)(=O)Oc2ccccc2OC)cc1 (stereo not given)	inactive: -3.53%
COc1ccc(OP(C)(=O)Nc2cccc(Br)c2)cc1 (stereo not given)	inactive: -2.54%
